Some of the results follow.

The test system of the assay is A. baumannii ATCC 17978. Nature of the assay: relative growth (fraction of control); higher = less inhibition. The conditions noted are these: 50 µM.
Consider `CC(C)CC#Cc1ccc2c(c1)O[C@@H](CN(C)C(=O)NC1CCCC1)[C@@H](C)CN([C@H](C)CO)S2(=O)=O`, for which the relative growth was 0.92.
To `O=C(N[C@H]1CC[C@@H](CCn2cc(C3(O)CCCC3)nn2)O[C@@H]1CO)C1CCOCC1` belongs 0.978; to `C=CC1=C(C)C2=NC/1=C\C1=NC(=C\C3=NC(=C\C4=NC(=C\2)/C(C)=C4CCC(=O)O)/C(CCC(=O)O)=C3C)/C(C=C)=C1C`, 1.1; to `O=C(N1CCOCC1)[C@@]1(CCS(=O)(=O)c2ccccc2)N=C(c2ccc(OCCCO)cc2)O[C@H]1c1ccccc1`, 0.753.
The result for `NCCCC[C@H](N[C@@H](CCc1ccccc1)C(=O)O)C(=O)N1CCC[C@H]1C(=O)O` reads 1.04; that for `COCC(=O)Nc1ccc2c(c1)C(=O)N(C)[C@H]1CC[C@@H](CC(=O)NCc3ccccc3Cl)O[C@@H]1CO2`, 1.
To `COCC(=O)Nc1ccc2c(c1)OC[C@H](C)N(Cc1ccccc1OC)C[C@@H](C)[C@H](OC)CN(C)C2=O` belongs 0.843; to `N[C@@H](CC(=O)O)c1cccc([N+](=O)[O-])c1`, 1.09.
In the case of `CCN1C(=O)CS/C1=N\N1CCOCC1`, the relative growth was found to be 0.997.
The result for `CCCC(=O)Nc1ccc2c(c1)C(=O)N(C)[C@@H]1CC[C@H](CC(=O)NCCN3CCCCC3)O[C@H]1CO2` reads 1.07; that for `c1ccc(Nc2ncnc3sc(-c4ccccc4)cc23)cc1`, 0.939; that for `CO[C@@H]1CN(C)C(=O)c2cc(NS(=O)(=O)CC(F)(F)F)ccc2OC[C@H](C)N(Cc2cccnc2)C[C@H]1C`, 1.
To `CC(C)(C)NC(=O)C[n+]1cccc(/C=N/O)c1` belongs 0.945; to `CO[C@H]1CN(C)C(=O)c2ccc(NC(=O)C3CC3)cc2OC[C@@H](C)N(C(=O)C2CCOCC2)C[C@@H]1C`, 0.971.
To `CO[C@@H]1CN(C)C(=O)c2cc(NC(=O)Nc3cccc(Cl)c3)ccc2OC[C@@H](C)N(C(=O)Nc2c(C)noc2C)C[C@@H]1C` belongs 1.26; to `C[C@H]1CN([C@@H](C)CO)S(=O)(=O)c2ccc(-c3ccc(C(=O)N(C)C)cc3)cc2O[C@H]1CN(C)C(=O)C1CCC1`, 0.918.
`CN1C(=O)C[C@H](C(=O)O)[C@H]1c1cccnc1`: the relative growth worked out at 1.1.
As for `CCCNC(=O)N[C@@H]1C=C[C@@H](CC(=O)N2CCN(C)CC2)O[C@@H]1CO`, the relative growth is 0.889.
The result for `O=C(C[C@@H]1C=C[C@H](NS(=O)(=O)c2ccc(F)cc2)[C@@H](CO)O1)NCc1ccc(Cl)c(Cl)c1` reads 0.858; that for `C=CCC[C@@H](Cc1ccc(F)cc1)C(=O)OC[C@@H](Cc1c[nH]c2ccccc12)NC(=O)[C@H](CC=C)CC(=O)N(CCO)Cc1ccccc1`, 1.47; that for `CO[C@H]1CN(C)C(=O)c2cc(NC(=O)Nc3ccccc3F)ccc2OC[C@H](C)N(Cc2ccccc2C(=O)O)C[C@@H]1C`, 1.08.
The result for `O=C(C[C@H]1CC[C@@H](NS(=O)(=O)c2ccccc2)[C@H](CO)O1)NCc1ccncn1` reads 1.17; that for `COc1ccc(S(=O)(=O)N[C@H]2CC[C@H](CCNC(=O)CN3CCOCC3)O[C@H]2CO)cc1`, 1.05.
The result for `C[C@H](N)[C@H](O)c1cccc(O)c1.O=C(O)[C@H](O)[C@@H](O)C(=O)O` reads 1.01; that for `O=C(/C=C/c1ccc(O)c(O)c1)O[C@H]1[C@H](O)C[C@](O)(C(=O)O)C[C@H]1OC(=O)/C=C/c1ccc(O)c(O)c1`, 0.947.
On to `COCC#Cc1cnc2c(c1)C(=O)N([C@H](C)CO)C[C@@H](C)[C@@H](CN(C)S(=O)(=O)c1cn(C)cn1)O2`, for which the relative growth amounted to 1.06.
On to `O=C(C1=C[C@H](c2ccc3c(c2)OCO3)C[C@H](OCCCCO)O1)N1CCN(Cc2ccc3c(c2)OCO3)CC1`, for which the relative growth stood at 0.826.
To `COc1ccccc1S(=O)(=O)N[C@@H]1C=C[C@@H](CC(=O)N2CCN(C)CC2)O[C@@H]1CO` belongs 1.01.
`COC1=C(OC)C(=O)C(CCCCCCCCCCO)=C(C)C1=O` registered a relative growth of 1.55.
Molecule `O=C(C[C@@H]1C=C[C@H](NC(=O)CN2CCOCC2)[C@H](CO)O1)NC1CCC1` showed a relative growth of 0.999.
Turning to `CC1(C)CC[C@]2(C(=O)O[C@@H]3O[C@H](CO)[C@@H](O[C@H]4OC[C@](O)(CO)[C@H]4O)[C@H](O)[C@H]3O)CC[C@]3(C)C(=CC[C@H]4[C@@]5(C)C[C@@H](O)[C@H](O)[C@@](C)(CO)[C@@H]5[C@H](O)C[C@]43C)[C@@H]2C1`, the relative growth amounted to 1.14.
As to `CCS(=O)(=O)NCC[C@H]1CC[C@H](NS(=O)(=O)c2cccc(F)c2)[C@@H](CO)O1`, the relative growth turned out to be 0.955.
To `COc1cc(-c2coc3cc(O)c(OC)c(O)c3c2=O)cc(O)c1OC` belongs 1.01.
To `CC(C)CC#Cc1ccc2c(c1)O[C@H](CN(C)C(=O)NC1CCCC1)[C@H](C)CN([C@H](C)CO)S2(=O)=O` belongs 1.08; to `NC(=O)Cn1cnc2sc3c(c2c1=O)CCC3`, 1.01.
The result for `C[C@@H]1CN([C@@H](C)CO)S(=O)(=O)c2ccc(C#CC3CCCC3)cc2O[C@H]1CN(C)C(=O)Cc1ccncc1` reads 0.677.
The molecule `CC(C)CC#Cc1ccc2c(c1)O[C@H](CN(C)C(=O)Cc1cccnc1)[C@H](C)CN([C@H](C)CO)S2(=O)=O` showed a relative growth of 0.953.
To `CCOC(=O)[C@H]1CC(CC2OCCO2)=NO1` belongs 1.02.
As for `O=C(O)CCCCCCC(=O)O`, the relative growth came out at 1.
Consider `CCCC(=O)Nc1ccc(OCC(O)CNC(C)C)c(C(C)=O)c1.Cl` (stereo unspecified), for which the relative growth turned out to be 1.06.
On to `Nc1ccc(S(=O)(=O)[O-])cc1.Nc1ccc(S(=O)(=O)[O-])cc1.[Zn+2]`, for which the relative growth was determined as 0.999.
To `CC(C)C[C@@H]1NC(=O)[C@H]2C[C@@H](C(=O)NCCCCCCNC(=O)CS)[C@@H](c3cccc(OCCO)c3)N2C1=O` belongs 1.09; to `O=C(N[C@@H]1CC[C@@H](CC(=O)N2CCOCC2)O[C@H]1CO)c1ccccn1`, 0.938.
To `COC(=O)c1cc(=O)nc2n1[C@H]1O[C@H](CO)[C@H](O)[C@H]1O2` belongs 1.03.
The result for `COc1ccccc1C(=O)N1CCNCC1` reads 1.1; that for `N#Cc1nn(-c2ccccc2)c(=O)[nH]c1=O`, 0.946.
Turning to `N[C@@H](Cc1ccccc1F)C(=O)O`, the relative growth came to 0.956.
In turn, `CC(=O)NCCCC[C@@H]1NC(=O)[C@H]2C[C@@H](C(=O)O)[C@@H](c3ccc(O)cc3)N2C1=O` displayed a relative growth of 1.73.
To `Cc1ccc(S(=O)(=O)N[C@@H](Cc2ccccc2)C(=O)NCCCn2cc(-c3ccccc3N)nn2)cc1` belongs 1.09; to `NC(=O)N/N=C/c1ccc([N+](=O)[O-])o1`, 0.467.
The molecule `COCC(=O)Nc1ccc2c(c1)CC(=O)N2` showed a relative growth of 1.02.

Source of the values: published antibiotic growth screens (doi:10.1038/s41589-023-01349-8).
